Laboratory results taken from patent publication US20240417484A1, “ANTIGEN-BINDING POLYPEPTIDES AGAINST CD73” (UNIVERSITÄTSKLINIKUM HAMBURG-EPPENDORF, priority 2021, published 2024).

What was measured:
[1] = target: T1, human CD73 (Homo sapiens, UniProt P21589); assay: Flow cytometry binding of rabbit IgG hcAbs to human CD73-transfected HEK cells; conditions: family representative clone; h = binds human CD73, m = binds mouse CD73
T1 construct: expressed in transfected cells; stably transfected in method 5.1)
T1 sequence (P21589 27-549): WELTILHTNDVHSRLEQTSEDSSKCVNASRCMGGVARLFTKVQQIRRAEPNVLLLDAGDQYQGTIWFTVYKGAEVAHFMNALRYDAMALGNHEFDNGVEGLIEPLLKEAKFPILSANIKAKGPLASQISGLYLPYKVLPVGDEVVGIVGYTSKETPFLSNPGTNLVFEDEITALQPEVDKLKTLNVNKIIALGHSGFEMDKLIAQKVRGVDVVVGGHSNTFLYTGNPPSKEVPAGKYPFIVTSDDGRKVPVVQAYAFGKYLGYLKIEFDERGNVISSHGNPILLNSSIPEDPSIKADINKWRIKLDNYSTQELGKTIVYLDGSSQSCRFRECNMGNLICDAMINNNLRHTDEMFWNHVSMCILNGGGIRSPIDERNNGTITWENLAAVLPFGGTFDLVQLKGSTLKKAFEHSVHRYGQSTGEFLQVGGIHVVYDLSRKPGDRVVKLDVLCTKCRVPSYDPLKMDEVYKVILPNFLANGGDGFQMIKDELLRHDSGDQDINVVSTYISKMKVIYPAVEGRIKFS
Description: HEK cells were co-transfected with expression vectors for green fluorescent protein (GFP) and human CD73, mouse CD73, and a control cell surface protein (CD39). 48 h after transfection, cells were incubated with HEK cell supernatants containing the indicated rabbit IgG hcAbs. Bound antibodies were detected with PE-conjugated anti rabbit IgG secondary antibody.
• 5.1 Untransfected HEK293 cells and HEK293 cells stably transfected with human or mouse CD73 were incubated for 30 min with HEK-6E cell supernatants containing rabbit IgG hcAbs (diluted 1:10 in PBS/0.1% BSA). Following washing with PBS/0.1% BSA, bound antibodies were detected with PE-conjugated goat anti-rabbit IgG polyclonal antibody (711-116-152 Dianova, Hamburg). • 5.2 For dissociation analyses, two separate aliquots of CD73-transfected cells were incubated either with Cell Proliferation Dye eFluor 450 (eBioscience) or with hcAbs for 20 min at RT. […] Cells were washed and analyzed by flow cytometry on a BD-FACS Canto. Data were analyzed using the FlowJo software (Treestar).
The binding specificities of the purified hcAbs were determined by flow cytometry using HEK cells transiently co-transfected with expression vectors for GFP and either mouse CD73, human CD73 or a control protein (CD39). […] The cells were resuspended in PBS and analyzed by flow cytometry on FACS Canto or FACS Celesta (BD Biosciences, Heidelberg). […]

[2] = target: T2, native CD73 on the cell surface of peripheral blood leukocytes (PBMCs) (Homo sapiens, UniProt P21589); assay: Flow cytometry binding of hcAbs to native CD73 on blood leukocytes; conditions: lymphocyte gate, co-stained for CD3 and CD19
T2 construct: endogenous in cells; host or cells: human PBMCs (B and T lymphocytes)
T2 sequence (P21589 27-549): T1 sequence (P21589 27-549)
Description: Purified hcAbs were analysed for binding to native CD73 on the cell surface of peripheral blood leukocytes (PBMCs) by flow cytometry. To this end purified human PBMCs were incubated for 30 min at RT with 10 μl of rabbit hcAb-containing HEK-6E cell supernatants and bound antibodies were detected with a FITC conjugated anti rabbit IgG secondary antibody. To distinguish between B lymphocytes most of which express high levels of cell surface CD73, and T lymphocytes a subset of which express moderate levels of cell surface CD73, cells were co-stained with PE-conjugated mouse anti-human CD3 mAb (UCHT1) and a PerCP/Cy5.5-conjugated mouse anti-human CD19 mAb (HIB19). After washing the cells, cells were analyzed by flow cytometry. A hcAb binding only to murine CD39 (SB30) was used as a negative control. As positive control, a FITC-conjugated monoclonal antibody against CD73 (clone AD2, Biolegend) was used. Gating was performed on lymphocytes on the basis of forward and side scattered light.

[3] = target: T3, soluble human CD73 (Homo sapiens, UniProt P21589); assay: Off-rates of soluble CD73 from immobilized Nb-rbIgG hcAb on Octet BLI; assay type: binding; conditions: soluble human CD73 ectodomain 200 ng/μl as analyte; Nb-rbIgG hcAb immobilized on protein A biosensor
T3 construct: The ectodomain of CD73 (aa 27-549) was expressed as a recombinant protein with a C-terminal His6× tag; His6 (C); made in house; host or cells: transiently transfected HEK cells
T3 sequence (P21589 27-549): T1 sequence (P21589 27-549)
Description: The binding off-rate constants of bivalent hcAbs to human and mouse CD73 protein were determined by […] kinetic analysis on Octet RED96 (ForteBio). Immobilization of rabbit IgG hcAbs on the protein A-biosensor surface was done in HEK-6E cell supernatant, and regeneration of analytes was done with 100 mM Glycin pH=2.5. Recombinant mouse or human CD73 ectodomain was used as analytes and tested at a saturating dose of 200 ng/μl. Sensorgrams were fitted using least square regression in association than dissociation Model in Prism8 (Graphpad). The results are depicted in Tables 2 and 3. Off-rates ranged from 2E^−3 to 4 E^−5 1/s.

[4] = target: T4, human CD73-transfected HEK cells (Homo sapiens, UniProt P21589); assay: Epitope binning by flow cytometry (human IgG hcAb blocks rabbit IgG hcAb); assay type: binding; conditions: epitope assignment on human CD73 from binning
T4 construct: expressed in transfected cells; stably transfected in method 5.1)
T4 sequence (P21589 27-549): T1 sequence (P21589 27-549)
Description: • 5.1 Untransfected HEK293 cells and HEK293 cells stably transfected with human or mouse CD73 were incubated for 30 min with HEK-6E cell supernatants containing rabbit IgG hcAbs (diluted 1:10 in PBS/0.1% BSA). Following washing with PBS/0.1% BSA, bound antibodies were detected with PE-conjugated goat anti-rabbit IgG polyclonal antibody (711-116-152 Dianova, Hamburg). • 5.2 For dissociation analyses, two separate aliquots of CD73-transfected cells were incubated either with Cell Proliferation Dye eFluor 450 (eBioscience) or with hcAbs for 20 min at RT. […] The dissociation of hcAbs from the target cells and association with the eFluor 450 labeled cells was analyzed by flow cytometry using the FlowJo software (Treestar). • 5.3 For epitope analyses, cells were preincubated with excess human IgG hcAbs (10 μl HEK-6E cell supernatant/100 μl PBS/0.1% BSA) for 30 min at RT before addition of Nb-rabbit IgG hcAbs (1 μl HEK-6E cell supernatant/100 μl PBS/0.1% BSA) and further incubation for 20 min at RT and staining with PE-conjugated anti-rabbit polyclonal antibody (711-116-152 Dianova, Hamburg). Cells were washed and analyzed by flow cytometry on a BD-FACS Canto. Data were analyzed using the FlowJo software (Treestar). […]

[5] = target: T3, soluble human CD73; assay: AMP hydrolysis by soluble CD73, DPEA-Napht-Azide fluorescence assay; assay type: biochemical; conditions: 50 ng CD73, 30 min pre-incubation with 10 μl hcAb supernatant, 1 mM AMP
Description: Recombinant human CD73 (50 ng) was pre-incubated for 30 min with hcAbs at RT in 96 well plates before addition of AMP and DPEA-Napht-Azide. Fluorescence signals were detected every 50 seconds for 30 repeats. ARFU values (>10^3/min) were calculated for a 10 min interval during the linear phase (from 5 min to 15 min) using Prism software (Graphpad). A non-specific rabbit IgG hcAb was used as control.
• 4.1 CD73 catalyzes the hydrolysis of AMP to adenosine. This reaction can be monitored by the shift in fluorescence intensity of DPEA-Napht-Azide. This property was used to determine whether hcAbs could interfere with the enzymatic activity of CD73. Soluble recombinant human CD73 (50 ng) was pre-incubated for 30 min with Nbs or hcAbs (10 μl HEK-6E cell supernatant containing 10-100 μg/ml hcAb) at RT in 96 well plates before addition of AMP (Sigma) to a final concentration of 1 mM and of DPEA-Napht-Azide to a final concentration of 50 μM. • 4.2 Fluorescence signals were recorded in white Nunc MicroWell plates (Nunc, 136101) on a Victor III plate reader (Perkin Elmer) (Exicitation filter: F485, Emission Filter: F535; CW-Lamp energy: 40000, counting time: 0.1 s). Data analyses were performed using Prism (Graphpad). […]

specificity [1]: h + m | Kdis [3]: 3.9e-05 s⁻¹ | Epitope [4]: 1 | effect on hydrolysis of AMP by soluble CD73 [5]: effectively blocked hydrolysis of AMP
B1: SB96: CD73-specific alpaca VHH clone, family 1, SEQ ID NO:61; tested as rabbit or human IgG hcAb (antibody)
heavy: DVQLQASGGGLVQPGGSLRLSCTASGFTLDYLSIGWFRQVPGKEREGVSCINSSGGSTNYADSLKGRLTISRDNAKNTVYLQMNSLKPEDTAVYYCAAHKYYYCSNKVEVFDYWGQGTPVTVSS
modifications: left off: a dimerising Fc or GST
notes: tested as rabbit or human IgG hcAb
staining of native CD73 on human PBMCs [2]: on most B cells and on a subset of T cells
